pIC50: −log10 of the molar value.

Here are results for one molecule from patent EP0415219A1, “ANF-Antagonist” (F. HOFFMANN-LA ROCHE AG, priority 1989, dated 1991).

In this assay the target is ANF Rezeptor (Membranpräparation von Rindernebennieren). The assay can be described thus: Binding test: displacement of radiolabelled ANF from its receptor (membrane preparation of bovine adrenal glands). The settings on record: inhibition of ¹²⁵I-ANF (18,2 pM) binding, 24 h at 4°C; read-out: IC₅₀. Further details: species or system Rind. The protocol:
In einem Bindungstest nach Bürgisser et al. [Biochem. Biophys. Res. Comm. 133, 1201 (1985)] wurde die Verdrängung von radioaktiv-markiertem ANF von dessen Rezeptor durch den ANF-Antagonisten gemessen. Als Rezeptorpräparation wurde eine Membranpräparation von Rindernebennieren verwendet. Zu 100 µl dieser Präparation in 50 mM Tris/HCl, 500 mM MgCl₂, 1 mM EDTA. 0,5% Rinderserumalbumin und 1 mM o-Phenanthrolin, pH 7,6, wurden ¹²⁵I-ANF (20'000 cpm. 18,2 pM) in 145 µl dieses Puffers und der Ligand in 5 µl Dimethylsulfoxid gegeben. Diese Mischung wurde 24 Stunden bei 4°C inkubiert und gebundenes von freiem ANF durch schnelle Filtration über Whatman GF/C Glasfaserfilter abgetrennt. Nach dreimaligem Waschen der Filter mit obigem Puffer (3 x 4 ml) wurden die Filter zerschnitten und deren Radioaktivität im Gamma-Zähler gemessen. Die Inhibition der Bindung wurde quantitativ mit der IC₅₀ erfasst, worunter diejenige Konzentration an entsprechendem Liganden zu verstehen ist, bei der die Bindung von ¹²⁵I-ANF halbmaximal gehemmt wird. Tabelle

Turning to `CC[C@H](C)[C@@H]1NC(=O)[C@H](CCCNC(=N)N)NC(=O)[C@H](CC(=O)O)NC(=O)[C@H]([C@@H](C)CC)NC(=O)[C@H](CCCNC(=N)N)NC(=O)CNC(=O)CNC(=O)[C@H](Cc2ccccc2)NC(=O)[C@@H](NC(=O)[C@H](CO)NC(=O)[C@H](CO)NC(=O)[C@H](CCCNC(=N)N)NC(=O)[C@H](CCCNC(=N)N)NC(=O)[C@H](CC(C)C)NC(=O)[C@@H](N)CO)CSSC[C@@H](C(=O)N[C@@H](CC(N)=O)C(=O)N[C@@H](CO)C(=O)N[C@@H](Cc2ccccc2)C(=O)N[C@@H](CCCNC(=N)N)C(=O)N[C@@H](Cc2ccc(O)cc2)C(=O)O)NC(=O)CNC(=O)[C@H](CC(C)C)NC(=O)CNC(=O)[C@H](CO)NC(=O)[C@H](CCC(N)=O)NC(=O)[C@H](C)NC(=O)CNC1=O` [Ratten ANF (99-126), reference compound], the pIC50 is 9.96.
